Most compounds without a hit are left out; they make up all but 3.7% or so of the library.
A549 tox: A549 cytotoxicity, counter-screen for Nrf2 inhibitors. A549 ARE-Fluc cells, CellTiter-Fluor viability, 18-24 h. 390,000 compounds, 0.16% hits. Potency, µM (titrated, usually from 46 µM), inactives show at the top dose activity change, negative = cytotoxicity, actives largely listed as inhibitors; further: potency means the concentration at half of the fitted maximal effect; on the % scale 0 is the no-effect control and ±100 the full control effect
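Cytotoxicity counterscreen: CellTiter-Fluor fluorescence was measured in A549 ARE_Fluc cells after 18-24 h of compound exposure in a concentration series. The subsequent BugLite luminescent read reports ARE-luciferase activity.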
Nrf2 ARE act: Nrf2 pathway activation; AREc32 ARE-luciferase reporter (MCF7-derived line), luminescence, 24 h; Potency, µM (doses to about 46.1 µM), inactives show at the highest dose activation, most hits filed as activators; 410,000 compounds, 0.31% hits; AID 624171; further: potency means the concentration at half of the fitted maximal effect; % of control where 0% means no effect; nearly all actives have a fitted effect of over 65% in size
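Reporter line AREc32 (ARE-Fluc), seeded overnight in OPTI-MEM with 5% FBS; compound pin-transferred, 24 hr at 37 deg C, 5% CO2; luminescent read-out.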
Nrf2 inh: Nrf2 pathway inhibition; A549 ARE-Fluc reporter, luciferase luminescence, 18-24 h; Potency, µM (titrated, usually from 46 µM), for the others: top-dose activity change, negative = inhibition, hits mostly inhibitors; 360,000 compounds, 2.1% hits; further: potency means the concentration at half of the fitted maximal effect; on the % scale 0 is the no-effect control and ±100 the full control effect; nearly all actives have a fitted effect of over 60% in size
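Quantitative HTS in A549 cells stably bearing an antioxidant response element-firefly luciferase construct. Inhibition of Nrf2-driven transcription was scored by luminescence after 18-24 h of compound exposure at 37 °C.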
miR-21 reporter: raises the signal of a miR-21 reporter | AID 2288 | 340,000 tested, under 10 active | Potency, µM (series often up to 38.3 µM), without a hit: at the highest dose reporter change, positive = more light | HeLa miR-21 FLuc reporter, luciferase, 48 h; active = well fitted rising curve with a large enough effect; inconclusive = small, poorly fitted or top-dose-only effect; inactive = no such curve, though single readings can be large or run the other way;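 further: % of control where 0% means no effect; miR-21 action dims this reporter so a rising signal means less miR-21 action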
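Luminescence from a firefly luciferase reporter carrying a miR-21 binding site downstream, stably expressed under a CMV promoter in HeLa cells that make miR-21 endogenously, reports miRNA modulation after 48 h compound exposure up to approximately 40uM final.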
ClpP mod: qHTS Assay for Activators of ClpP. Potency, µM (highest dose often 57.5 µM), without a hit: top-dose activity change, negative = active. 340,000 compounds, 1.9% hits. purified B. subtilis ClpP, FRET peptide cleavage, 20 min. ATP-dependent Clp protease proteolytic subunit (Bacillus subtilis (strain 168)), P80244. AID 651965, 2013; active means well fitted falling curve with a large enough effect; inconclusive means small, poorly fitted or top-dose-only effect; inactive means no such curve, though single readings can be large or run the other way; further: potency means the concentration at half of the fitted maximal effect; the source files actives as falling curves though it sought activators and does not explain the sign; nearly all actives have a fitted effect of over 65% in size
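ClpP 10 microg/mL final, pH 8 Tris/KCl buffer with BSA, glycerol, Tween-20; compound pinned in; FRET-FV substrate; RT 20 min; Ex320/Em430; ΔFRET vs ADEP 5.8 microM, DMSO, no enzyme.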
IL2 activator: activators of IL-2; IL-2 activation reporter assay, cell-based qHTS; stimulated with anti-CD3/CD4/CD28 beads; in transgenic mouse T cells; activation, % (series mostly up to about 46 µM); 360,000 compounds, 0.065% hits; AID 652025; in the data active means activation above about 50%; inconclusive means mostly about 30% to 49%; further: 0% is about no effect
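Readout is EGFP and DsRed signal by fluorescent plate cytometry after 18 h at 37 degrees C. Transgenic mouse T cells (750/well) received compound for 60 min before bead stimulation (anti-CD3, anti-CD4, anti-CD28); memory T cells served as non-tolerant control.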
The depositor's hits bear a star; u = inconclusive; x = no result; [ ] = another dose, or the depositor's remark. Unless noted, the call rests on the fitted dose curve; in most records, active means well fitted curve in the direction sought with a large enough effect; inconclusive means small, poorly fitted or top-dose-only effect, or another doubt; inactive means no such curve, though single readings can be large; an effect the other way counts as inactive or inconclusive.

Preview (two entries):
Below each SMILES: A549 tox | Nrf2 ARE act | Nrf2 inh | miR-21 reporter | ClpP mod | IL2 activator
[1] COC(=O)c1ccc(OC)c(CSc2nnc(COc3ccc(OC)cc3)o2)c1
→ x | 1% | 13µM* | -1% | -1% | -1
[2] CC(N=Cc1c(O)c2ccccc2oc1=O)C(=O)O (stereo not drawn)
→ -9% | 0%[9.22 µM] | u | 10% | x | -3

This part in full, repeating the preview:
Below each SMILES: A549 tox | Nrf2 ARE act | Nrf2 inh | miR-21 reporter | ClpP mod | IL2 activator
[1] COC(=O)c1ccc(OC)c(CSc2nnc(COc3ccc(OC)cc3)o2)c1
→ x | 1% | 13µM* | -1% | -1% | -1
[2] CC(N=Cc1c(O)c2ccccc2oc1=O)C(=O)O (stereo not drawn)
→ -9% | 0%[9.22 µM] | u | 10% | x | -3
[3] O=C(O)C(CO)N=Cc1c(O)c2ccccc2oc1=O (stereo not drawn)
→ u | 0% | 6.5µM* | 12% | x | 2
[4] COc1ccc(CNCc2cc3c(C(C)(C)C)nn(-c4ccccc4)c3[nH]c2=O)cc1
→ -25% | 7% | 18µM* | -16% | -3% | -3
[5] CCOC(=O)C1(CCOc2ccccc2)CCN(Cc2ccc(O)cc2)CC1
→ 5% | 1% | 24% | 14% | 3% | 0
[6] CCOC(=O)C1(CCOc2ccccc2)CCN(Cc2cccc3nonc23)CC1
→ -11% | -1% | 21µM* | 12% | u | -4
[7] O=C(COc1ccccc1/C=C1\SC(=S)NC1=O)Nc1ccc(F)cc1
→ u | u | 23µM* | x | x | -1
[8] COc1ccc(-n2cnc3c(c2=N)C(c2cccc(OC)c2)c2c(ccc4ccccc24)O3)cc1 (stereo not drawn)
→ -4% | x | u | x | x | x
[9] N=c1c2c(ncn1-c1ccccc1)Oc1ccc3ccccc3c1C2c1ccc2c(c1)CCO2 (stereo not drawn)
→ 16µM* | x | u | x | x | x
[10] CCOc1ccc(C2c3c(ncn(-c4ccccc4)c3=N)Oc3ccc4ccccc4c32)cc1OCC (stereo not drawn)
→ 21µM* | x | 16µM* | x | x | x

The list goes on; it opens with the two that closed the last part.
Screens by letter: A = A549 tox; B = Nrf2 ARE act; C = Nrf2 inh; D = miR-21 reporter; E = ClpP mod; F = IL2 activator
9) N=c1c2c(ncn1-c1ccccc1)Oc1ccc3ccccc3c1C2c1ccc2c(c1)CCO2 (stereo not drawn)
  A: 16µM*; B: x; C: u; D: x; E: x; F: x
10) CCOc1ccc(C2c3c(ncn(-c4ccccc4)c3=N)Oc3ccc4ccccc4c32)cc1OCC (stereo not drawn)
  A: 21µM*; B: x; C: 16µM*; D: x; E: x; F: x
11) COc1cccc(C2c3c(ncn(-c4ccncc4)c3=N)Oc3ccc4ccccc4c32)c1 (stereo not drawn)
  A: -8%; B: x; C: 16%; D: x; E: x; F: x
12) Cc1ccc(NC(=O)c2ccc(CN3CC(=O)N4CCCCC4C3=O)cc2)cc1 (stereo not drawn)
  A: 10%; B: 1%; C: u; D: -16%; E: 1%; F: x
13) C#CC(C)(CC)NC(=O)c1cc2c(n(-c3ccc(Cl)cc3)c1=O)CC(C)(C)CC2=O (stereo not drawn)
  A: -9%; B: -1%; C: -4%; D: 3%; E: -25%; F: x
14) C[n+]1c(-c2ccccc2)cc2c(=Cc3ccccc3)c3ccccc3n21
  A: u; B: 7%; C: 21µM*; D: x; E: -7%; F: -2
15) CN(C)c1ccc(C=c2c3cc(O)ccc3n3c2cc(-c2ccccc2)[n+]3C)cc1
  A: u; B: 2%; C: 18µM*; D: x; E: 2%; F: 6
16) O=c1[nH]c2c(-c3nc(-c4ccc(Cl)cc4)cs3)c(O)cn2c2ccccc12
  A: x; B: x; C: x; D: x; E: -4%; F: x
17) COc1ccccc1NC(=O)CSC1=NC(=O)C(NC(C)=O)C(=O)N1 (stereo not drawn)
  A: -4%; B: 0%; C: x; D: 1%; E: 28µM*; F: 1
18) Cc1oc2c(c1C(=O)Nc1cccc(Br)c1)C1=NCCN1C=N2
  A: 15%; B: 1%; C: u; D: 1%; E: -3%; F: x
19) CCOC(=O)N1CCN(C(=O)c2ccc3c(c2)sc2nc(-c4ccccc4)cn23)CC1
  A: -2%; B: 5%; C: 20%; D: -1%; E: -10%; F: 0
20) CCOC(=O)C1CCCN(C(=O)c2ccc3c(c2)sc2nc(-c4cccc(OC)c4)cn23)C1 (stereo not drawn)
  A: -7%; B: 4%; C: 16µM*; D: -8%; E: -22%; F: x
21) CCCNC(=O)c1ccc2c(c1)sc1nc(-c3ccc(C)cc3)cn12
  A: 12%; B: 6%; C: 14%; D: 1%; E: 32µM*; F: x
22) CCc1ccc(-c2cn3c(n2)sc2cc(C(=O)NCCC4=CCCCC4)ccc23)cc1
  A: -4%; B: 5%; C: 13%; D: 2%; E: 25µM*; F: x
23) CCN(CC)CCCNC(=O)c1ccc2c(c1)sc1nc(-c3ccc(C)cc3)cn12
  A: 0%; B: 8%; C: 17%; D: 1%; E: -27%; F: x
24) Cc1ccc(-c2cn3c(n2)sc2cc(C(=O)N4CCCCC4)ccc23)cc1
  A: 1%; B: 5%; C: 32%; D: 2%; E: 25µM*; F: x
25) Cc1ccc(-c2cn3c(n2)sc2cc(C(=O)NCCC4=CCCCC4)ccc23)cc1
  A: 0%; B: 4%; C: -3%; D: 2%; E: -19%; F: x

Screening results from PubChem.
